Values of other authors in patent US8173686B2, “Use of picoplatin to treat colorectal cancer” (priority 2006, dated 2012).

Conditions: in vivo

O=C1[O][Pt]2([NH][C@@H]3CCCC[C@H]3[NH]2)[O]C1=O [oxaliplatin]
main / dose-limiting toxicity: Peripheral neurotoxicity is well documented
